Read-outs that look alike come from different tables or passages of the source.
Tests used:
human μ opiate receptor = human μ opiate receptor (Homo sapiens, UniProt P35372); test: μ opiate receptor binding assay with [3H]-naloxone, membrane preparation of CHO-K1 cells (WGA-SPA beads); details: for MOP % Inhibition @1 μM / % inhibition (μ) [1 μM]: test concentration 1 μM
ORL1 receptor = ORL1 receptor (Homo sapiens, UniProt P41146); details: for ORL1 % Inhibition @ 1 μM / % inhibition (ORL1) [1 μM]: test concentration 1 μM
[1] = read-out: Ki (μ) mean [μm], mean
[2] = read-out: Ki (ORL1) mean [μm], mean

The chains behind the UniProt entries cited, without tags or fusion partners. Where a name states a change or a piece, a line headed by the entry shows the natural chain unless it says otherwise.
UniProt P35372, whole entry, looked up: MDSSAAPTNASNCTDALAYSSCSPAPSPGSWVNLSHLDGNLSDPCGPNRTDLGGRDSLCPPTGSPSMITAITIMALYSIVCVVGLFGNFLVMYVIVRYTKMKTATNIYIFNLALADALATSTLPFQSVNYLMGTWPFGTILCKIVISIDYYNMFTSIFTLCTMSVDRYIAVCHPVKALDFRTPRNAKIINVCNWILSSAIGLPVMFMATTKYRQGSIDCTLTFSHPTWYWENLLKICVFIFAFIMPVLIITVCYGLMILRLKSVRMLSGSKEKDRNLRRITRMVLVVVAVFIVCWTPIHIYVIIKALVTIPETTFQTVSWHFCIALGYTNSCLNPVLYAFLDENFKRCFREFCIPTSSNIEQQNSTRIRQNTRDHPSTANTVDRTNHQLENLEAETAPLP
UniProt P41146: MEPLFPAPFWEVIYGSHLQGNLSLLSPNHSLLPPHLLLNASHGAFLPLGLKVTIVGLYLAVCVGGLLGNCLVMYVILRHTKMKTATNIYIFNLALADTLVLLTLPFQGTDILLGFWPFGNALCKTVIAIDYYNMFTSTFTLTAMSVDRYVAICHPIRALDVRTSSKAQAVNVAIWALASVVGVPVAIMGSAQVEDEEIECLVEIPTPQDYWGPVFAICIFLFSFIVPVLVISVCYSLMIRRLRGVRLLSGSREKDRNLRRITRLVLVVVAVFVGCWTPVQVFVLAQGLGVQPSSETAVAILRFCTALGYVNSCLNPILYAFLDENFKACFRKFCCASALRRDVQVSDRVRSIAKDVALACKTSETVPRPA

Compound	Ki (human μ opiate receptor; read-out: MOP Ki) [nM]	Ki (ORL1 receptor; read-out: ORL1 Ki) [nM]	MOP % Inhibition @1 μM (human μ opiate receptor) [%]	ORL1 % Inhibition @ 1 μM (ORL1 receptor) [%]	other results
CN(C)[C@]1(c2ccccc2)CC[C@]2(CC1)CC(=O)N(CCC(N)=O)C2	180	215	–	–	–
CCCNC(=O)CN1C[C@]2(CC[C@@](c3ccccc3)(N(C)C)CC2)CC1=O	1.8	2.4	99	95	–
CN(C)[C@]1(c2ccccc2)CC[C@@]2(CC1)CC(=O)N(c1csc(-c3ccncc3)n1)C2	345	210	–	–	–
CN(C)C1(c2ccccc2)CCC2(CCN(C(=O)Cc3ccncc3)C2)CC1 (centres unmarked)	25.5	45.5	98	76	–
CN(C)[C@]1(c2ccccc2)CC[C@]2(CC1)CC(=O)N(CCC(C)(C)C(=O)NCC#N)C2	27.5	31	92	83	–
CN(C)[C@]1(c2ccccc2)CC[C@]2(CC1)CC(=O)N(CCCC(=O)O)C2	1990	1280	42	13	–
CN(C)[C@]1(c2ccccc2)CC[C@]2(CC1)CC(=O)N(CC(=O)N1CCS(=O)(=O)CC1)C2	1.8	7.9	98	93	–
CN(C)C1(c2ccccc2)CCC2(CC1)CC(=O)N(c1cccc(C#N)c1)C2 (centres unmarked)	9.7	23	99	85	–
Cis-3-(8-Methylamino-3-oxo-8-pyridin-2-yl-2-azaspiro[4.5]decan-2-yl)-propionamide	–	–	19	4	–
CN(C)C1(C2CCCC2)CCC2(CCN(Cc3ccccc3)C2)CC1 (centres unmarked)	–	–	–	–	Ki (human μ opiate receptor; [1]): 3.2 nM; % inhibition (μ) [1 μM] (human μ opiate receptor): 100%; Ki (ORL1 receptor; [2]): 3.7 nM; % inhibition (ORL1) [1 μM] (ORL1 receptor): 94%
CN(C)C1(C(=O)c2ccccc2)CCC2(CCN(Cc3ccccc3)C2)CC1 (centres unmarked)	–	–	–	–	% inhibition (μ) [1 μM] (human μ opiate receptor): 81.5%; % inhibition (ORL1) [1 μM] (ORL1 receptor): 54.5%
CN(C)[C@]1(c2ccccc2)CC[C@]2(CC1)CC(=O)N(CCC(=O)NCCC#N)C2	100	300	87	63	–
CN(C)[C@]1(c2ccccc2)CC[C@]2(CC1)CC(=O)N(CC(=O)NCCC#N)C2	7	26	97	73	–
Cis-3-[8-Dimethylamino-8-(3-methoxy-propyl)-3-oxo-2-azaspiro[4.5]decan-2-yl]-propionamide	–	–	15	12	–
CN(C)[C@]1(c2ccccc2)CC[C@]2(CC1)CC(=O)N(CCC1(C(=O)O)CCOCC1)C2	347	1480	65	24	–
CN(C)[C@]1(c2ccccc2)CC[C@]2(CC1)CC(=O)N(CCCNC(=O)c1cccnc1)C2	65.7	126	93	57	–
CN(C)[C@]1(c2ccccc2)CC[C@]2(CC1)CC(=O)N(CC(=O)O)C2	697	753	–	–	Ki (human μ opiate receptor; read-out: MOP Ki, hydrochloride): 1680 nM; MOP % Inhibition @1 μM (human μ opiate receptor; 1 µM): 58%; MOP % Inhibition @1 μM (human μ opiate receptor; hydrochloride, 1 µM): 31%; Ki (ORL1 receptor; read-out: ORL1 Ki, hydrochloride): 1130 nM; ORL1 % Inhibition @ 1 μM (ORL1 receptor; 1 µM): 34%; ORL1 % Inhibition @ 1 μM (ORL1 receptor; hydrochloride, 1 µM): 27%
CN(C)[C@]1(c2ccccc2)CC[C@]2(CC1)CC(=O)N(CC(=O)Nc1cccnc1)C2	50	250	95	38	–
CCCCC1(N(C)C)CCC2(CC1)CC(=O)N(Cc1ccccc1)C2 (centres unmarked)	–	–	–	–	% inhibition (μ) [1 μM] (human μ opiate receptor): 23%; Ki (ORL1 receptor; [2]): 1490 nM; % inhibition (ORL1) [1 μM] (ORL1 receptor): 6.5%
(E)-1-[8-(5-Chlorothiophen-2-yl)-8-dimethylamino-2-azaspiro[4.5]dec-2-yl]-3-phenylpropenone	–	–	–	–	Ki (human μ opiate receptor; [1]): 3.25 nM; % inhibition (μ) [1 μM] (human μ opiate receptor): 102%; Ki (ORL1 receptor; [2]): 31.5 nM; % inhibition (ORL1) [1 μM] (ORL1 receptor): 83.5%
CN(C)[C@]1(c2ccccc2)CC[C@]2(CC1)CC(=O)N(CCC(=O)Nc1cccnc1)C2	72	102	98	69	–
Cc1ccc(N2C[C@]3(CC[C@@](c4ccccc4)(N(C)C)CC3)CC2=O)nn1	64.5	58	–	–	–
CN(C)[C@]1(c2ccccc2)CC[C@]2(CC1)CC(=O)N(CCC(C)(C)C(=O)Nc1ccccc1)C2	5.4	23	98	83	–
CN(C)C1(C2CCCC2)CCC2(CC1)CC(=O)N(Cc1ccccc1)C2 (centres unmarked)	–	–	–	–	Ki (human μ opiate receptor; [1]): 5.95 nM; % inhibition (μ) [1 μM] (human μ opiate receptor): 98.5%; Ki (ORL1 receptor; [2]): 34.7 nM; % inhibition (ORL1) [1 μM] (ORL1 receptor): 75.5%
CN(C)C1(c2ccccc2)CCC2(CC1)CC(=O)N(CC(=O)NCC1CCS(=O)(=O)CC1)C2 (centres unmarked)	–	–	61	15	–
